This passage reports IC50 results from BindingDB's records for 1335078.

Amino acid sequences for entries named in this document (tags omitted).
UniProt P41143, whole entry, looked up: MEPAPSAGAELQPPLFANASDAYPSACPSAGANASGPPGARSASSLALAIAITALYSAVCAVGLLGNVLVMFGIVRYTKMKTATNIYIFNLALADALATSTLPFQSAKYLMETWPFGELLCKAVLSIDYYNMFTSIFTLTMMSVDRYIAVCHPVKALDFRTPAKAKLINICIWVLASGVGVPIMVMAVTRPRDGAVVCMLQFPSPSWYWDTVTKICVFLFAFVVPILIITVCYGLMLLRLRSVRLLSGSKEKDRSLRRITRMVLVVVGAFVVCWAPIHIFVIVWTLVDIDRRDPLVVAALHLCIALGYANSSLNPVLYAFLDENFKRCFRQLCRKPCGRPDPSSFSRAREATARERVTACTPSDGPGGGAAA

As a reminder, the IC50 is the concentration at which inhibition is half-maximal. Low readings indicate greater potency, high ones weaker potency.

Structures are written as SMILES.

In this experiment the target is Delta-type opioid receptor (Homo sapiens, UniProt P41143). Description: ASSAY_NAME: ChEBML_146877 DESCRIPTION: Inhibition of Opioid receptor delta 1 by displacing 1 nM [3H]DPDPE in guinea pig brain membrane.
`C=C(COc1ccc2c3c1O[C@H]1C(=O)CC[C@@]4(O)[C@@H](C2)N(C)CC[C@]314)C(=O)OC` displayed a concentration for half-maximal inhibition (IC50) of 21 nM.

`C=C(COc1ccc2c3c1O[C@H]1c4[nH]c5ccccc5c4C[C@@]4(O)[C@@H](C2)N(CC2CC2)CC[C@]314)C(=O)OC`: the IC50 is 0.8 nM.

`C=C(COc1ccc2c3c1O[C@H]1[C@H](O)CC[C@@]4(O)[C@@H](C2)N(CC2CC2)CC[C@]314)C(=O)OC` gave an IC50 of 34 nM.

`C=C(COc1ccc2c3c1O[C@H]1[C@H](OCC(=C)C(=O)OC)CC[C@@]4(O)[C@@H](C2)N(CC2CC2)CC[C@]314)C(=O)OC` yielded an IC50 of 3.2 nM.

Compound `C=C(COc1ccc2c3c1O[C@H]1C(=O)CC[C@@]4(O)[C@@H](C2)N(CC2CC2)CC[C@]314)C(=O)OC` gave an IC50 of 17 nM.

`C=C(COc1ccc2c3c1O[C@H]1c4[nH]c5c(c4C[C@@]4(O)[C@@H](C2)N(CC2CC2)CC[C@]314)C[C@@]1(O)[C@H]2Cc3ccc(OCC(=C)C(=O)OC)c4c3[C@@]1(CCN2CC1CC1)[C@H]5O4)C(=O)OC`: the IC50 is 50 nM.

The compound `COC(=O)C(C)COc1ccc2c3c1O[C@H]1C(=O)CC[C@@]4(O)[C@@H](C2)N(CC2CC2)CC[C@]314` (some centres not stated) yielded an IC50 above 1000 nM.
